ChEMBL document CHEMBL1124219, “Inhibition of porcine pepsin by two substrate analogues containing statine. The effect of histidine at the P2 subsite on the inhibition of aspartic proteinases” (J Med Chem, 1988)

The chains behind the UniProt entries cited, without tags or fusion partners. Where a name states a change or a piece, a line headed by the entry shows the natural chain unless it says otherwise.
UniProt P00797: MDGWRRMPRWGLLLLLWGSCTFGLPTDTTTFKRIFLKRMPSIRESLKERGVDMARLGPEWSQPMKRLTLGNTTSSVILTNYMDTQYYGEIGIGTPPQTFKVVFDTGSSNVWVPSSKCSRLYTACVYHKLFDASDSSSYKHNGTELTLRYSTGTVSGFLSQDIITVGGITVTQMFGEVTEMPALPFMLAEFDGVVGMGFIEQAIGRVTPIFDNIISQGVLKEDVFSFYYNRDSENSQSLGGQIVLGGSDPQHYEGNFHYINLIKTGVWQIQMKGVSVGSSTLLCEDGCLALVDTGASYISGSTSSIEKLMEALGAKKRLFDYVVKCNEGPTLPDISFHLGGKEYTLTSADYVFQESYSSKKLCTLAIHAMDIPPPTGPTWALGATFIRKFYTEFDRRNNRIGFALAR

Target: Renin (Homo sapiens, UniProt P00797)
Assay: Inhibition of human renin at pH 6.0

SMILES: COC(=O)C[C@H](O)[C@H](CC(C)C)NC(=O)[C@H](C)NC(=O)C[C@H](O)[C@H](CC(C)C)NC(=O)[C@H](Cc1c[nH]c2ccccc12)NC(=O)[C@H](Cc1c[nH]c2ccccc12)NC(=O)OC(C)(C)C
- IC50: 17 nM
